One may read the IC50 as the concentration at which inhibition is half-maximal. A word on the EC50: it is the concentration giving half of the maximal effect.

Sequences of proteins named here, by UniProt entry; tags and fusion partners are left off.
UniProt P32245, whole entry: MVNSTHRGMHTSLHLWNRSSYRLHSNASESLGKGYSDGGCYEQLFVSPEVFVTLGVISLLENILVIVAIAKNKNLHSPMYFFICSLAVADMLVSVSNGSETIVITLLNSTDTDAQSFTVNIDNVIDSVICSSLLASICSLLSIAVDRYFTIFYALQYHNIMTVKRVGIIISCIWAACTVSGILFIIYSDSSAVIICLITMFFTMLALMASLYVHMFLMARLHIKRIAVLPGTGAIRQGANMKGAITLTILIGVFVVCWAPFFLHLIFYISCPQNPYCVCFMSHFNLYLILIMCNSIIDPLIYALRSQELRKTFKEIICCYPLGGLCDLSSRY
UniProt P41968, whole entry: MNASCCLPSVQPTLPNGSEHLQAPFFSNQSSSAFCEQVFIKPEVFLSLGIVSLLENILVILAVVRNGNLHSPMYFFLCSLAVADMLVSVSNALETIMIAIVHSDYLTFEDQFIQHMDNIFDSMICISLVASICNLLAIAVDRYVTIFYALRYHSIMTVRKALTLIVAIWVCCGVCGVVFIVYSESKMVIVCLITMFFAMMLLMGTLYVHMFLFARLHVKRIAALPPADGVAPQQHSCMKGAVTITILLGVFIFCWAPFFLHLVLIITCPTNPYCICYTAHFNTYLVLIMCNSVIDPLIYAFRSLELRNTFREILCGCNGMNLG
UniProt Q01726, whole entry: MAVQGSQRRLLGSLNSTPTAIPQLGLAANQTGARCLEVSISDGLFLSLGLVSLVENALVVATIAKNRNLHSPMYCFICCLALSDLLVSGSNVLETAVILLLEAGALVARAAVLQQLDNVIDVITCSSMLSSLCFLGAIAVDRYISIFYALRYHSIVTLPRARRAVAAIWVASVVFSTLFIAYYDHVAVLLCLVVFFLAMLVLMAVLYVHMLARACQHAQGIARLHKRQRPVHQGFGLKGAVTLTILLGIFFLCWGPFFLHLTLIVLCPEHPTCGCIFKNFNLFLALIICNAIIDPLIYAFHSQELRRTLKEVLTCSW

This is an account of results in patent publication US20260382689A1, “METHODS OF PREVENTING AND/OR TREATING SIDE EFFECTS ASSOCIATED WITH ANTI-CANCER AGENTS USING NON-NATURALLY OCCURRING MELANOCORTIN ANALOGS WITH ANTI-GDF-15 ANTIBODIES” (published 2026).

Experiment [1] has as its target human melanocortin 4 receptor (MC4R) (Homo sapiens, UniProt P32245). In words: cAMP accumulation assay (HTRF), antagonist and/or agonist activity at MC4R (Example 1, Table 13, FIGS. 5-8). To be noted: Table 13; dose-response against MC4R; cAMP. A general note: Cyclic AMP is a second messenger, typically raised through Gs and lowered through Gi signalling.
In experiment [2] the target is human melanocortin 3 receptor (MC3R) (Homo sapiens, UniProt P41968). In words: cAMP accumulation assay (HTRF), antagonist and/or agonist activity at MC3R (Example 1, Table 12, FIGS. 1-4). Particulars: MC3R, antagonist activity, dose-response, cAMP.
The target in experiment [3] is melanocortin 1 receptor (MC1R) (Homo sapiens, UniProt Q01726). In words: cAMP accumulation assay (HTRF), agonist and/or antagonist activity at MC1R (Example 1, Table 11). Particulars: dose-response, cAMP.

Consider `CCCC[C@H](NC(C)=O)C(=O)N[C@H]1CC(=O)NCCCC[C@@H](C(=O)N[C@H](C)C(=O)N[C@H](C)C(N)=O)NC(=O)[C@H](Cc2c[nH]c3ccccc23)NC(=O)[C@H](CCCNC(=N)N)NC(=O)[C@@H](Cc2ccc3ccccc3c2)NC(=O)[C@@H]2CCCN2C1=O`, for which the IC50 in experiment [1] turned out to be 11 nM; in experiment [2], 3.54 nM. The EC50 in experiment [3] came out at 25 nM.
In the same order, the values of `CCCC[C@H](NC(C)=O)C(=O)N[C@H]1CC(=O)NCCCC[C@@H](C(=O)N[C@H](CCCNC(=N)N)C(=O)N2CCC[C@@H]2C(N)=O)NC(=O)[C@H](Cc2c[nH]c3ccccc23)NC(=O)[C@H](CCCNC(=N)N)NC(=O)[C@@H](Cc2ccc3ccccc3c2)NC(=O)[C@@H]2CCCN2C1=O` are 0.95 nM, 0.45 nM and 0.19 nM.
`CCCC[C@H](NC(C)=O)C(=O)N[C@H]1CC(=O)NCCCC[C@@H](C(=O)N[C@@H](CCCNC(=N)N)C(=O)N2CCC[C@H]2C(=O)N[C@H](C(N)=O)C(C)C)NC(=O)[C@H](Cc2c[nH]c3ccccc23)NC(=O)[C@H](CCCNC(=N)N)NC(=O)[C@@H](Cc2ccc3ccccc3c2)NC(=O)[C@@H]2CCCN2C1=O`: the IC50 was 15 nM in experiment [1] and 0.68 nM in experiment [2]. This molecule gave an EC50 in experiment [3] of 0.28 nM.
For `CCCC[C@H](NC(C)=O)C(=O)N[C@H]1CC(=O)NCCCC[C@@H](C(=O)N[C@@H](C(=O)N2CCC[C@@H]2C(N)=O)C(C)C)NC(=O)[C@H](Cc2c[nH]c3ccccc23)NC(=O)[C@H](CCCNC(=N)N)NC(=O)[C@@H](Cc2ccc3ccccc3c2)NC(=O)[C@H](C(C)C)NC1=O` the same measures were 11 nM, 4.38 nM and 54 nM.
For `CCCC[C@H](NC(C)=O)C(=O)N[C@H]1CC(=O)NCCCC[C@@H](C(=O)N[C@@H](CCCNC(=N)N)C(=O)N[C@@H](C(=O)N2CCC[C@@H]2C(N)=O)C(C)C)NC(=O)[C@H](Cc2c[nH]c3ccccc23)NC(=O)[C@H](CCCNC(=N)N)NC(=O)[C@@H](Cc2ccc3ccccc3c2)NC(=O)[C@@H]2CCCN2C1=O` the same measures were 89 nM, 1.67 nM and 7.4 nM.
In the case of `CCCC[C@H](NC(C)=O)C(=O)N[C@H]1CC(=O)NCCCC[C@@H](C(=O)N[C@H](CCCNC(=N)N)C(=O)N2CCC[C@@H]2C(=O)N[C@@H](C(N)=O)C(C)C)NC(=O)[C@H](Cc2c[nH]c3ccccc23)NC(=O)[C@H](CCCNC(=N)N)NC(=O)[C@@H](Cc2ccc3ccccc3c2)NC(=O)[C@@H]2CCCN2C1=O`, the IC50 in experiment [1] was 22 nM; in experiment [2], 1.03 nM. For the same molecule, the EC50 in experiment [3] turned out to be 4.7 nM.
As for `CCCC[C@H](NC(C)=O)C(=O)N[C@H]1CC(=O)NCCCC[C@@H](C(=O)N[C@@H](CC(=O)O)C(N)=O)NC(=O)[C@H](Cc2c[nH]c3ccccc23)NC(=O)[C@H](CCCNC(=N)N)NC(=O)[C@@H](Cc2ccc3ccccc3c2)NC(=O)[C@@H]2CCCN2C1=O`, the IC50 stood at 95 nM in experiment [1] and 3.48 nM in experiment [2]. Moreover, in experiment [3], the EC50 was determined as 190 nM.
In the case of `CCCC[C@H](NC(C)=O)C(=O)N[C@H]1CC(=O)NCCCC[C@@H](C(=O)N[C@@H](CCCNC(=N)N)C(=O)N2CCC[C@@H]2C(N)=O)NC(=O)[C@H](Cc2c[nH]c3ccccc23)NC(=O)[C@H](CCCNC(=N)N)NC(=O)[C@@H](Cc2ccc3ccccc3c2)NC(=O)[C@@H]2CCCN2C1=O`, the IC50 in experiment [1] is 15 nM; in experiment [2], 1.63 nM. This molecule returned an EC50 in experiment [3] of 0.82 nM.
Take `CCCC[C@H](NC(C)=O)C(=O)N[C@H]1CC(=O)NCCCC[C@@H](C(=O)N[C@@H](CCCCN)C(=O)N[C@H](C(=O)N2CCC[C@H]2C(N)=O)C(C)C)NC(=O)[C@H](Cc2c[nH]c3ccccc23)NC(=O)[C@H](CCCNC(=N)N)NC(=O)[C@@H](Cc2ccc3ccccc3c2)NC(=O)[C@@H]2CCCN2C1=O`: the results for the IC50 in experiment [1] and in experiment [2] were 5.9 nM and 0.43 nM, respectively. Besides, the EC50 in experiment [3] stood at 0.82 nM.
In the same order, the values of `CCCC[C@H](NC(C)=O)C(=O)N[C@H]1CC(=O)NCCCC[C@@H](C(=O)N[C@@H](C(N)=O)C(C)C)NC(=O)[C@H](Cc2c[nH]c3ccccc23)NC(=O)[C@H](CCCNC(=N)N)NC(=O)[C@@H](Cc2ccc3ccccc3c2)NC(=O)[C@@H]2CCCN2C1=O` are 100 nM, 14 nM and 120 nM.
For `CCCC[C@H](NC(C)=O)C(=O)N[C@H]1CC(=O)NCCCC[C@@H](C(=O)N[C@@H](CCCNC(=N)N)C(=O)N2CCC[C@@H]2C(=O)N[C@@H](C(N)=O)C(C)C)NC(=O)[C@H](Cc2c[nH]c3ccccc23)NC(=O)[C@H](CCCNC(=N)N)NC(=O)[C@@H](Cc2ccc3ccccc3c2)NC(=O)[C@@H]2CCCN2C1=O` the same measures were 32 nM, 2.1 nM and 7.6 nM.
On to `CCCC[C@H](NC(C)=O)C(=O)N[C@H]1CC(=O)NCCCC[C@@H](C(=O)N[C@@H](C(=O)N2CCC[C@@H]2C(N)=O)C(C)C)NC(=O)[C@H](Cc2c[nH]c3ccccc23)NC(=O)[C@H](CCCNC(=N)N)NC(=O)[C@@H](Cc2ccc3ccccc3c2)NC(=O)[C@@H](C)NC1=O`, for which the IC50 in experiment [1] is more than 1000 nM; in experiment [2], 665 nM. The molecule further yielded an EC50 in experiment [3] of 220 nM.
In the case of `CCCC[C@H](NC(C)=O)C(=O)N[C@H]1CC(=O)NCCCC[C@@H](C(=O)N[C@@H](C(=O)N[C@H](CCCNC(=N)N)C(N)=O)C(C)C)NC(=O)[C@H](Cc2c[nH]c3ccccc23)NC(=O)[C@H](CCCNC(=N)N)NC(=O)[C@@H](Cc2ccc3ccccc3c2)NC(=O)[C@@H]2CCCN2C1=O`, the results for the IC50 in experiment [1] and in experiment [2] were 29 nM and 1.07 nM, respectively. The molecule further displayed an EC50 in experiment [3] of 3.8 nM.
Regarding `CCCC[C@H](NC(C)=O)C(=O)N[C@H]1CC(=O)NCCCC[C@@H](C(=O)N[C@@H](CCCNC(=N)N)C(=O)N[C@H](C(=O)N2CCC[C@H]2C(N)=O)C(C)C)NC(=O)[C@H](Cc2c[nH]c3ccccc23)NC(=O)[C@H](CCCNC(=N)N)NC(=O)[C@@H](Cc2ccc3ccccc3c2)NC(=O)[C@@H]2CCCN2C1=O`, the values for the IC50 in experiment [1] and in experiment [2] were 55 nM and 2.03 nM, respectively. Further, the EC50 in experiment [3] is 16 nM.
For `CCCC[C@H](NC(C)=O)C(=O)N[C@H]1CC(=O)NCCCC[C@@H](C(=O)N[C@@H](C(=O)N2CCC[C@@H]2C(N)=O)C(C)C)NC(=O)[C@H](Cc2c[nH]c3ccccc23)NC(=O)[C@H](CCCNC(=N)N)NC(=O)[C@@H](Cc2ccc3ccccc3c2)NC(=O)[C@H]([C@@H](C)CC)NC1=O` the same measures were 22 nM, 9.51 nM and 28 nM.
As to `CCCC[C@H](NC(C)=O)C(=O)N[C@H]1CC(=O)NCCCC[C@@H](C(=O)N[C@@H](CCCCN)C(=O)N[C@@H](C(=O)N2CCC[C@@H]2C(N)=O)C(C)C)NC(=O)[C@H](Cc2c[nH]c3ccccc23)NC(=O)[C@H](CCCNC(=N)N)NC(=O)[C@@H](Cc2ccc3ccccc3c2)NC(=O)[C@@H]2CCCN2C1=O`, the IC50 was found to be 8.2 nM in experiment [1] and 1.21 nM in experiment [2]. Also, in experiment [3], the EC50 stood at 1.7 nM.
With `CCCC[C@H](NC(C)=O)C(=O)N[C@H]1CC(=O)NCCCC[C@@H](C(=O)N[C@H](CCCNC(=N)N)C(N)=O)NC(=O)[C@H](Cc2c[nH]c3ccccc23)NC(=O)[C@H](CCCNC(=N)N)NC(=O)[C@@H](Cc2ccc3ccccc3c2)NC(=O)[C@@H]2CCCN2C1=O`, the IC50 in experiment [1] amounted to 12 nM; in experiment [2], 0.73 nM. For the same molecule, in experiment [3], the EC50 turned out to be 8.3 nM.
For `CCCC[C@H](NC(C)=O)C(=O)N[C@H]1CC(=O)NCCCC[C@@H](C(=O)N[C@H](CCCCN)C(=O)N[C@@H](C(=O)N2CCC[C@@H]2C(N)=O)C(C)C)NC(=O)[C@H](Cc2c[nH]c3ccccc23)NC(=O)[C@H](CCCNC(=N)N)NC(=O)[C@@H](Cc2ccc3ccccc3c2)NC(=O)[C@@H]2CCCN2C1=O`, the results for the IC50 in experiment [1] and in experiment [2] were 81 nM and 3.02 nM, respectively. For the same molecule, in experiment [3], the EC50 amounted to 35 nM.
For the molecule `CCCC[C@H](NC(C)=O)C(=O)N[C@H]1CC(=O)NCCCC[C@@H](C(=O)N[C@@H](C(=O)N2CCC[C@@H]2C(N)=O)C(C)C)NC(=O)[C@H](Cc2c[nH]c3ccccc23)NC(=O)[C@H](CCCNC(=N)N)NC(=O)[C@@H](Cc2ccc3ccccc3c2)NC(=O)c2cccc(c2)CNC1=O`, the IC50 in experiment [1] and in experiment [2] was more than 1000 nM each time. In addition, the EC50 in experiment [3] is more than 1000 nM.
As to `CCCC[C@H](NC(C)=O)C(=O)N[C@H]1CC(=O)NCCCC[C@@H](C(=O)N[C@@H](CCCCN)C(=O)N2CCC[C@H]2C(=O)N[C@H](C(N)=O)C(C)C)NC(=O)[C@H](Cc2c[nH]c3ccccc23)NC(=O)[C@H](CCCNC(=N)N)NC(=O)[C@@H](Cc2ccc3ccccc3c2)NC(=O)[C@@H]2CCCN2C1=O`, the EC50 in experiment [3] came out at 0.15 nM.
For the molecule `CCCC[C@H](NC(C)=O)C(=O)N[C@H]1CC(=O)NCCCC[C@@H](C(=O)N[C@H](C(N)=O)C(C)C)NC(=O)[C@H](Cc2c[nH]c3ccccc23)NC(=O)[C@H](CCCNC(=N)N)NC(=O)[C@@H](Cc2ccc3ccccc3c2)NC(=O)[C@@H]2CCCN2C1=O`, the IC50 in experiment [1] turned out to be 46 nM; in experiment [2], 1.77 nM. Moreover, the EC50 in experiment [3] is 3 nM.
In the case of `CCCC[C@H](NC(C)=O)C(=O)N[C@@H]1C(=O)N[C@H](Cc2ccc3ccccc3c2)C(=O)N[C@@H](CCCNC(=N)N)C(=O)N[C@@H](Cc2c[nH]c3ccccc23)C(=O)N[C@@H](C(=O)N[C@@H](C(=O)N2CCC[C@@H]2C(N)=O)C(C)C)CSSC1(C)C`, the IC50 in experiment [1] and in experiment [2] was more than 1000 nM in each case.
On to `CCCC[C@H](NC(C)=O)C(=O)N[C@H]1CC(=O)NCCCC[C@@H](C(=O)N[C@@H](C(=O)N2CCC[C@@H]2C(N)=O)C(C)C)NC(=O)[C@@H](Cc2c[nH]c3ccccc23)NC(=O)[C@H](CCCNC(=N)N)NC(=O)[C@@H](Cc2ccc3ccccc3c2)NC(=O)[C@@H]2CCCN2C1=O`, for which the EC50 in experiment [3] stood at 35 nM.
Still for that read-out and setting: then `CCCC[C@H](NC(C)=O)C(=O)N[C@H]1CC(=O)NCCCC[C@@H](C(=O)N[C@@H](C)C(N)=O)NC(=O)[C@H](Cc2c[nH]c3ccccc23)NC(=O)[C@H](CCCNC(=N)N)NC(=O)[C@@H](Cc2ccc3ccccc3c2)NC(=O)[C@@H]2CCCN2C1=O`, with 4.1 nM.
